This assay has as its target human NK2 receptor (Homo sapiens, UniProt P21452). In words: Neurokinin A (NKA) Receptor Binding Assay (Test B). To be noted: read-out: IC50 versus 3H-NKA binding; versus ^3 H-NKA binding to MELM; standard compound, initial use of assay. The source says:
Neurokinin A (NKA) Receptor Binding Assay (Test B)

Chains of the proteins cited; added tags and fusions are not shown.
UniProt P21452, whole entry: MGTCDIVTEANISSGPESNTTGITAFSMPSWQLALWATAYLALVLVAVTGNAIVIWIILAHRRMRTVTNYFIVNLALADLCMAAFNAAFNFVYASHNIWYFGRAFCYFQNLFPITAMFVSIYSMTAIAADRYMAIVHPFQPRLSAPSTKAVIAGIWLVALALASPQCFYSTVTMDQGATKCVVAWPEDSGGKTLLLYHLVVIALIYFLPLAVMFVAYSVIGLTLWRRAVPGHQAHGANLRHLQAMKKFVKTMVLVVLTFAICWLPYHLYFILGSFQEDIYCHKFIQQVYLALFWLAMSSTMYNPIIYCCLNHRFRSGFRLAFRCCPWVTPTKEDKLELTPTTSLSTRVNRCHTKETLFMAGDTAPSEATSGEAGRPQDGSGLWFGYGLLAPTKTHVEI

The results in this text go back to patent US5731309A, “Substituted heteroalkyleneamine neurokinin antagonists” (Zeneca Limited, priority 1994, dated 1998).

Usually IC50 stands for the midpoint of a concentration-inhibition curve. For `CSCC[C@@H]1NC(=O)[C@H](CC(C)C)NC(=O)CNC(=O)[C@H](Cc2ccccc2)NC(=O)[C@H](Cc2c[nH]c3ccccc23)NC(=O)[C@H](CCC(N)=O)NC1=O`, the IC50 is 30 nM.
